For this data set the following is noted: other treated groups (0.5, 5, 10 mg/ml), 6-day infusion.

For the compound `Nc1ccn([C@@H]2CO[C@H](CO)O2)c(=O)n1` [troxacitabine, (−)-β-L-Dioxolane-Cytidine], the body weight gain result was “comparable to those from the saline treated group”.

Source of the values: US20040248915A1, “Method for administration of troxacitabine” (priority 2003, published 2004).
